The text below walks through data of PMC4826332 (Journal of medicinal chemistry, 2015).

By UniProt entry, the sequences of proteins in these tests, tags left out.
UniProt P05177, whole entry: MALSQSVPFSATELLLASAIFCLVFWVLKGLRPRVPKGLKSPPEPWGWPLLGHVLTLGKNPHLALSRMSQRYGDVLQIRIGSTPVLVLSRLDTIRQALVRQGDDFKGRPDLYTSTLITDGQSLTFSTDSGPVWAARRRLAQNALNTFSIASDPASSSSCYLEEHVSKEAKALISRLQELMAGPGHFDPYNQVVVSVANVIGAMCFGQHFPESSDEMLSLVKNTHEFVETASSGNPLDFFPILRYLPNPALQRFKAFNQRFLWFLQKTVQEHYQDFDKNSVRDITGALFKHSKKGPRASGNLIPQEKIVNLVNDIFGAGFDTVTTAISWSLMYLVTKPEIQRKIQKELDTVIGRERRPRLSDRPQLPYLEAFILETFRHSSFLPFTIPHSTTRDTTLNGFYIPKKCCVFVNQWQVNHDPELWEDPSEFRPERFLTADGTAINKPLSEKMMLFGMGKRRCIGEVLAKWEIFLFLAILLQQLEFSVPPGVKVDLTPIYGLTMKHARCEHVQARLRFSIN

One series has as its target CYP1B1 / CYP1A2 (Homo sapiens, UniProt P05177). Nature of the series: P450 1A2-dependent methoxyresorufin-O-demethylase. The class given is biochemical. To be noted: pH 7.6.
Another series addresses CYP1A1 / CYP1A2 (Homo sapiens, UniProt P05177). Description: P450 1A2-dependent methoxyresorufin-O-demethylase. Type of series: biochemical. To be noted: pH 7.6.

Consider `O=c1cc(-c2ccccc2)c2ccc3c(c2o1)OCO3` [Compound 28, 6-Phenyl-8H-[1,3]dioxolo[4,5-h]chromen-8-one], for which the figures for the selectivity ratio at CYP1B1 / CYP1A2 and at CYP1A1 / CYP1A2 were 8.5 and over 56, respectively.
